The record followed here is ChEMBL document CHEMBL2384918, “Identification of Selective Nanomolar Inhibitors of the Human Neuraminidase, NEU4” (ACS Med Chem Lett, 2013).

The target in the assay is T1, Sialidase-3 (Homo sapiens, UniProt Q9UQ49).
T1 sequence (Q9UQ49 whole entry): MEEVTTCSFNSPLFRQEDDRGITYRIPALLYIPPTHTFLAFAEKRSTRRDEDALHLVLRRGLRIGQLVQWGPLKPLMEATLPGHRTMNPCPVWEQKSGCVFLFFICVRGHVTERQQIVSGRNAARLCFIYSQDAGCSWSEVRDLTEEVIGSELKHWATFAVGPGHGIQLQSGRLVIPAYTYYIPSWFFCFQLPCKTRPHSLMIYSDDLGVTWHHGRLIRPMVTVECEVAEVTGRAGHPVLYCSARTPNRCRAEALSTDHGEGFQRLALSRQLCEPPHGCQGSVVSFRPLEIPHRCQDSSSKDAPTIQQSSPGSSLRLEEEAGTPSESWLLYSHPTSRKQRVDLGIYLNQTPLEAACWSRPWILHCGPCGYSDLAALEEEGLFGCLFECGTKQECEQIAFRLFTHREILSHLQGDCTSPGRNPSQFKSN
As to the kind of experiment: Inhibition of human NEU3 using 4-MU-NANA as substrate preincubated for 15 mins before substrate addition measured after 30 mins by fluorescence plate reader analysis.

Usually IC50 stands for the point on the concentration scale where inhibition reaches its midpoint. Read a high IC50 as a need for much substance. In the case of `CC(=O)N[C@H]1[C@H]([C@H](O)[C@H](O)Cn2cc(C(C)(C)O)nn2)OC(C(=O)O)=C[C@@H]1O`, the IC50 is 180 µM.
